US20070010428A1, “Inhibitors of signal transduction and activator of transcription 3” (priority 2004, published 2007)

Columns and labels:
[1] = target: Stat3 (as in the EMSA of Table 1), P40763; assay: EMSA: IC50 of peptide 1 against IC50 of peptide 2
[2] = target: Stat3 (as in the EMSA of Table 1), P40763; assay: EMSA: inhibition of Stat3 dimerization and DNA binding, average of two determinations

fold increase in potency against Peptide 2 (Ac-pTyr-Leu-Lys-Thr-Lys-Phe-NH2) [1]: > 100 fold
IC50 [2]: 150 nM
Binder: YLPQTV (modifications not checked) [Ac-pTyr-Leu-Pro-Gln-Thr-Val-NH2]
